For three molecules, Activity, Ratio IC50 and Ratio Ki results are on record in ChEMBL document CHEMBL6074628, “Rational design, synthesis and pharmacological characterization of novel aminopeptidase A inhibitors” (Bioorg Med Chem Lett, 2024).

Sequences of proteins named here, by UniProt entry; tags and fusion partners are left off.
UniProt P50123, whole entry: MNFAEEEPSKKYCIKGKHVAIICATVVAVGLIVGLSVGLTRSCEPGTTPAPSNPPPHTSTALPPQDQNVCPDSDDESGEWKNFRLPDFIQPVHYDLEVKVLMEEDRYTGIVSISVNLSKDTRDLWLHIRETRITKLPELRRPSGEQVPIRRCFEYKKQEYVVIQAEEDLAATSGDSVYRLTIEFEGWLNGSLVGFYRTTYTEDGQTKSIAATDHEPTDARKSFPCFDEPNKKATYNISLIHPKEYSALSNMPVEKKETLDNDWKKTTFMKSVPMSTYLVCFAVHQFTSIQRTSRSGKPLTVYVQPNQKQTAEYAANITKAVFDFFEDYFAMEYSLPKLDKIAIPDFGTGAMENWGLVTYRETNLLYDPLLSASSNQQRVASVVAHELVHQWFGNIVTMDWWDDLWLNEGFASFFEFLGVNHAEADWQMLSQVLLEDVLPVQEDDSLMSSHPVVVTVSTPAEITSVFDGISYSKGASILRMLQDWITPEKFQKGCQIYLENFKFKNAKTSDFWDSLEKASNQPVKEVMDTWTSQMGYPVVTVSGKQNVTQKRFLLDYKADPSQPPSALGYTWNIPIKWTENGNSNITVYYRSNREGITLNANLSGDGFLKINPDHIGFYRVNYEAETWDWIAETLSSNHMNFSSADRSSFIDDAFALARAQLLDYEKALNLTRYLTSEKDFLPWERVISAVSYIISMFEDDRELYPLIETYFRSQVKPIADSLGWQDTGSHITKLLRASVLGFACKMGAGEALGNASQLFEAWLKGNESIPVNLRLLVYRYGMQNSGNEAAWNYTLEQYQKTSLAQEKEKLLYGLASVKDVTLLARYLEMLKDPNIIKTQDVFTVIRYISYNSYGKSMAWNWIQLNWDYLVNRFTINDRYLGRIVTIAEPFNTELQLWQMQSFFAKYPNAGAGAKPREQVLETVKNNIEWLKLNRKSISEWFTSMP

Experiment [1] has as its target Aminopeptidase A (Rattus norvegicus) (UniProt P50123). Description: In vivo inhibition of aminopeptidase A in alert male spontaneously hypertensive rat model assessed as decrease in APA activity in brain by measuring hydrolyzed GlubetaNa at 100 mg/kg, iv measured after 30 mins. The class given is functional, organism-based.
Experiment [2] is described as follows: Selectivity index, ratio of IC50 for inhibition of APN (unknown origin) to IC50 for inhibition of recombinant mouse APA.
The target in experiment [3] is Aminopeptidase A (Rattus norvegicus) (UniProt P50123). Description: In vivo inhibition of aminopeptidase A in alert male spontaneously hypertensive rat model assessed as decrease in APA activity in brain by measuring hydrolyzed GlubetaNa at 2 mg/kg, iv measured after 30 mins. The experiment is classed as functional, organism-based.
The target is the same in experiment [4]. Description: In vivo inhibition of aminopeptidase A in alert male spontaneously hypertensive rat model assessed as decrease in cardiac APA activity by measuring hydrolyzed GlubetaNa at 2 mg/kg, iv measured after 30 mins. The experiment is classed as functional, organism-based.
The target is the same in experiment [5]. Description: In vivo inhibition of aminopeptidase A in alert male spontaneously hypertensive rat model assessed as decrease in renal APA activity by measuring hydrolyzed GlubetaNa at 2 mg/kg, iv measured after 30 mins. The class given is functional, organism-based.
The next experiment is filed under the species Homo sapiens. Nature of the experiment: Potency index, ratio of (S)-3-amino-4-mercaptobutane-1-sulfonic acid Ki to test compound Ki for inhibition of APA (unknown origin).

Turning to `N[C@@H](CCS(=O)(=O)O)CSSC[C@@H](N)CCS(=O)(=O)O`, the Activity in experiment [1] is 14.7 nmol/mg/h.
Regarding `COc1ccccc1CCP(=O)(O)[C@@H](N)CCC(=O)O`, in experiment [2], the Ratio IC50 is more than 5000. For the same molecule, the Activity in experiment [3] came to 25.5 nmol/mg/h; in experiment [4], 17 nmol/mg/h; in experiment [5], 1890 nmol/mg/h.
`N[C@@H](CCS(=O)(=O)O)[C@@H](S)CCc1ccccc1`: in the experiment filed under Homo sapiens, the Ratio Ki came to 10.
